Reference: patent US9855256B2, “Cyclooxygenase inhibitor and calcium channel antagonist compositions and methods for use in urological procedures” (Omeros Corporation, priority 2005, dated 2018)

Tested on: Isolated bladder smooth muscle strips
Settings: read-out: EC50 of agonist, cumulative concentration-response curve (contraction); normal animals; FIG. 2

CSCC[C@H](NC(=O)[C@H](CC(C)C)NC(=O)CNC(=O)[C@H](Cc1ccccc1)NC(=O)[C@H](Cc1ccccc1)NC(=O)[C@H](CCC(N)=O)NC(=O)[C@H](CCC(N)=O)NC(=O)[C@@H]1CCCN1C(=O)[C@H](CCCCN)NC(=O)[C@@H]1CCCN1C(=O)[C@@H](N)CCCNC(=N)N)C(N)=O [SP, Substance P]
EC50: 6.5 nM
